Laboratory results taken from patent publication US4593019A, “N^6 -tricyclic adenosines” (Warner-Lambert Company, priority 1984, dated 1986).

The chains behind the UniProt entries cited, without tags or fusion partners.
UniProt P25099, whole entry: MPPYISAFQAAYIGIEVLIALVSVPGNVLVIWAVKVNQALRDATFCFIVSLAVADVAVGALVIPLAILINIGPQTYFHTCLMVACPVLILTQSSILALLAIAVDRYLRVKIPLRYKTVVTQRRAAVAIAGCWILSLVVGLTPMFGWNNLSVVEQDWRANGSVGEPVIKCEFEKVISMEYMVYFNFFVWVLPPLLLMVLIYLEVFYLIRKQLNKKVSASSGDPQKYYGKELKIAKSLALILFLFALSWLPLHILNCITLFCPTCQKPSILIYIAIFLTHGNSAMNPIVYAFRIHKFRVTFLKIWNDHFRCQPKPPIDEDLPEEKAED

Target: T1, A1 receptor (Rattus norvegicus, UniProt P25099)
T1 construct: Whole brain minus cerebellum and brainstem from male Long Evans rats; from tissue; host or cells: rat whole brain minus cerebellum and brainstem (membranes)
Test: Adenosine Receptor Binding - A1 Receptor Affinity (RBA1), [3H]-CHA displacement
Conditions: 1.0 nM [3H]-CHA, rat brain membranes, pH 7.7, 25° C., 1 h; read-out: RBA-1 IC50 (adenosine A1 receptor affinity)
Protocol: Adenosine Receptor Binding--A1 Receptor Affinity (RBA1) […] Whole brain minus cerebellum and brainstem from male Long Evans rats (150-200 g) was homogenized in 30 volumes of ice-cold 0.05 M Tris-HCl buffer pH 7.7 using a Brinkman Polytron PT-10, (setting number 6 for 20 seconds) and centrifuged for ten minutes at 20,000 x g (Sorvall RC-2), 4° C. The supernatant was discarded, and the pellet was resuspended and centrifuged as before. The pellet was resuspended in 20 ml Tris-HC1 buffer containing two International Units/ml of adenosine deaminase (Sigma type III from calf intestinal mucosa), incubated at 37° C. for 30 minutes, then subsequently at 0° C. for ten minutes. […] The radio-labeled ligand retained on the filter was measured by liquid scintillation spectrophotometry after shaking the filters for one hour or longer on a mechanical shaker in 10 ml of Beckman Ready-Solv HP scintillation cocktail. […] The Scatchard plot was calculated by linear regression of the line obtained by plotting the amount of radioligand bound (pmoles/gram of tissue) versus [bound radioligand/free radioligand].Since the amount of radioligand bound was a small fraction of the total amount added, free radioligand was defined as the concentration (nM) of radioligand added to the incubation mixture. […] The maximal number of binding sites (Bmax) was calculated from the Scatchard plot.

`OC[C@H]1O[C@@H](n2cnc3c(NCC4c5ccccc5-c5ccccc54)ncnc32)[C@H](O)[C@@H]1O` [Example 2] was tested, and the IC50 was 5.6 nM.
